Holding throughout (type): functional
The target in test [1] is D(2) dopamine receptor (Homo sapiens) (UniProt P14416). In words: Partial agonist activity at D2 receptor.
The target of test [2] is D(3) dopamine receptor (Homo sapiens) (UniProt P35462). Briefly: Partial agonist activity at D3 receptor relative to control.
The target of test [3] is D(2) dopamine receptor (Homo sapiens) (UniProt P14416). Briefly: Partial agonist activity at D2 receptor relative to control.

Chains of the proteins cited; added tags and fusions are not shown.
UniProt P14416, whole entry: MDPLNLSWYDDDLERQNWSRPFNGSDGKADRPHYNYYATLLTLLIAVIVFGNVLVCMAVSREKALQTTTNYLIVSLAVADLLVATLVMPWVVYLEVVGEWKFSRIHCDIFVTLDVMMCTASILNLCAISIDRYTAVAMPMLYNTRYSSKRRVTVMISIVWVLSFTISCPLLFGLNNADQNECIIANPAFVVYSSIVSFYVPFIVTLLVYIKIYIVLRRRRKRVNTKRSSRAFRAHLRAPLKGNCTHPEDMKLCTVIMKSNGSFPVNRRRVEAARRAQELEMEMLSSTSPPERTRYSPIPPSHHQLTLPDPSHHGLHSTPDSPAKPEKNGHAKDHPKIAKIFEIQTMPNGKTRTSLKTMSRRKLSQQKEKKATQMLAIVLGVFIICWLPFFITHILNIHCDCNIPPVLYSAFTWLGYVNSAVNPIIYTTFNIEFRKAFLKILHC
UniProt P35462, whole entry: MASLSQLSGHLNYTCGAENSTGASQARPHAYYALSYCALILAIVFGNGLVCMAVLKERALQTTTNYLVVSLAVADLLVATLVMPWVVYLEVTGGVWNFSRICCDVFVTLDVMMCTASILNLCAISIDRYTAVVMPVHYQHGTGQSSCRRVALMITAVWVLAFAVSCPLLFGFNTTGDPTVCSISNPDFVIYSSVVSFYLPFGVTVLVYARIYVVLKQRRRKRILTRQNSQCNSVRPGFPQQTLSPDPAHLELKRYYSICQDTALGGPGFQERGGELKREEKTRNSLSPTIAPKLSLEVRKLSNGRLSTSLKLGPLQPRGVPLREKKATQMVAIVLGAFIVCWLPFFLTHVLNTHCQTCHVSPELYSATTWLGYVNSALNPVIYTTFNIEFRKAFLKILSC

Calls of active or inactive are those of the source. The calls are words filed in the database; no cut-off is given here.

As usually defined, the Emax is the maximal effect, on the per cent scale that the assay sets.

In the case of `O=C(NCCCCN1CCN(c2cccc(Cl)c2Cl)CC1)c1cc2ccccc2[nH]1`, the result in test [1] was Active. Besides, the Emax in test [2] and in test [3] was 8% each time.

The record behind these values is ChEMBL document CHEMBL2163217, “A straightforward approach for engineering efficacy and selectivity at GPCRs” (J Med Chem, 2012).
